Values quoted from earlier work as cited in US9345700B2, “Compositions and methods useful for treating diseases” (Eutropics Pharmaceuticals, Inc., priority 2011, dated 2016).

By UniProt entry, the sequences of proteins in these tests, tags left out.
UniProt Q07820, whole entry, species assumed: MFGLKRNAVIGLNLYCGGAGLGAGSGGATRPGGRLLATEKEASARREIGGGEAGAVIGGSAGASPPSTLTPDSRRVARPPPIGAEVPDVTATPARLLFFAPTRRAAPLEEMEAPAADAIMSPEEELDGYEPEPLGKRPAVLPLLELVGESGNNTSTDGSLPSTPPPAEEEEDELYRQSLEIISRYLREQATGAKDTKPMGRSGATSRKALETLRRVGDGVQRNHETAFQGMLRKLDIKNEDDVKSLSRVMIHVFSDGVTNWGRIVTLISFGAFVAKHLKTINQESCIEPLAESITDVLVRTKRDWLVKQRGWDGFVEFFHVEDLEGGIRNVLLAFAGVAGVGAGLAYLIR
UniProt P10415, whole entry, species assumed: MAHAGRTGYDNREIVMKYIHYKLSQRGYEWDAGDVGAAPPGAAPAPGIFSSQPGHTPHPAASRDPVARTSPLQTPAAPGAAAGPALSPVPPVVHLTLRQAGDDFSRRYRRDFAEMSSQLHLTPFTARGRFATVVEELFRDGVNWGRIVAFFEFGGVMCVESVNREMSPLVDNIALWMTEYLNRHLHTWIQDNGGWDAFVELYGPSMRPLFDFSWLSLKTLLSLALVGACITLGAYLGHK

How the values were obtained:
[1] = molecular target: Mcl-1 (Homo sapiens (Human), UniProt Q07820); details: cited from earlier work
[2] = molecular target: Bcl-2 (Homo sapiens (Human), UniProt P10415); details: read-out: IC50 versus Bcl-2; cited from earlier work

Compound | IC50 [1] | IC50 [2]
CN(C)CC[C@H](CSc1ccccc1)Nc1ccc(S(=O)(=O)NC(=O)c2ccc(N3CCN(Cc4ccccc4-c4ccc(Cl)cc4)CC3)cc2)cc1[N+](=O)[O-] [ABT-737] | < 500 nM | –
CC1(C)CCC(c2ccc(Cl)cc2)=C(CN2CCN(c3ccc(C(=O)NS(=O)(=O)c4ccc(N[C@H](CCN5CCOCC5)CSc5ccccc5)c(S(=O)(=O)C(F)(F)F)c4)cc3)CC2)C1 [ABT-263] | – | < 10 nM
